In the test the target is T1, Polyamine deacetylase HDAC10 (Homo sapiens, UniProt Q969S8).
T1 sequence (Q969S8 whole entry): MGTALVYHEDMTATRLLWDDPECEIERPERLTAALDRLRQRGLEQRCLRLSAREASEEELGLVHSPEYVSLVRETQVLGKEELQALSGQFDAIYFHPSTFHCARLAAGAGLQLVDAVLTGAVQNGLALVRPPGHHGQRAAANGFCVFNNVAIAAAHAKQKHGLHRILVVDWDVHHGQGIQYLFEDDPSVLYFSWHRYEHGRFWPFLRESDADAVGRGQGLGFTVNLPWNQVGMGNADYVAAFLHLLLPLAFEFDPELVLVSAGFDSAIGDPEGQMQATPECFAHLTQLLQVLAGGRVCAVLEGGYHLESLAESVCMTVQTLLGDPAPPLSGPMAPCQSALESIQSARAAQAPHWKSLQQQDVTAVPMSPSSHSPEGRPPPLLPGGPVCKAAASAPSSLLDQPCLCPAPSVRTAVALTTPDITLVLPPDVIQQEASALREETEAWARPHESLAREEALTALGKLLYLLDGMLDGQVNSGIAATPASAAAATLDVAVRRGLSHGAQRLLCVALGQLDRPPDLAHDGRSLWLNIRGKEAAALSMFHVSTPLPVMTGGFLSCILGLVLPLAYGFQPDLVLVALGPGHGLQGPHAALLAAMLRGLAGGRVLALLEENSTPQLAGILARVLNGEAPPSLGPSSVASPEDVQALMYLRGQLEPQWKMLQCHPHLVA
The test is described as follows: Inhibition of N-terminal FLAG-tagged recombinant human HDAC10 (2 to 631 residues) extracted from baculovirus infected Sf9 cells by fluorogenic assay.

A word on the IC50: it is the concentration that inhibits the measured activity by half.

Consider `O=C(CCCCCCC(=O)Nc1ccccc1)NO` [VORINOSTAT], for which the IC50 stood at 23.2 nM.

Source of the values: ChEMBL document CHEMBL6121021, “Design and Synthesis of Topoisomerases-Histone Deacetylase Dual Targeted Quinoline-Bridged Hydroxamates as Anticancer Agents” (J Med Chem, 2025).
